Proliferation data for 1 compound are collected here from patent US12564583B2, “Small molecules against cereblon to enhance effector T cell function” (H. LEE MOFFITT CANCER CENTER AND RESEARCH INSTITUTE, INC., priority 2016, dated 2026).

The assay has as its system human T cells. The assay can be described thus: Viability and proliferation of activated T cells. The class given is cell-based.

With `Nc1cccc2c1CN(C1CCC(=O)NC1=O)C2=O` (stereo not shown) [Lenalidomide, lenalidomide], the proliferation entry is “increase proliferation”.
